# This is a selection; strong and weak results do not stand in their true shares. Activity calls are given as the source filed them. Rule as the data show it: active = activation above about 18%; inactive = the rest.
# By UniProt entry, the sequences of proteins in these tests, tags left out.
# UniProt P35372, whole entry, looked up: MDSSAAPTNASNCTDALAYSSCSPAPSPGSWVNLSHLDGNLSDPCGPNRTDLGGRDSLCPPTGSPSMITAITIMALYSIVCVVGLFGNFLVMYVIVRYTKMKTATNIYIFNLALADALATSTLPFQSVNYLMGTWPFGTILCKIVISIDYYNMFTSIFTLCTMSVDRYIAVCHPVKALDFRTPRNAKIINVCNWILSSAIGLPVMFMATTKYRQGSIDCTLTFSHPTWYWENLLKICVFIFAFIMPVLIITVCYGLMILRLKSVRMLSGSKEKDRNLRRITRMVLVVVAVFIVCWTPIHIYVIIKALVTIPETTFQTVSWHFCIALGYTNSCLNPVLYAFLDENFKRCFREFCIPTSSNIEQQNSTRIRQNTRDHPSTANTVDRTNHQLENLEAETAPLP
# UniProt P41143, whole entry, looked up: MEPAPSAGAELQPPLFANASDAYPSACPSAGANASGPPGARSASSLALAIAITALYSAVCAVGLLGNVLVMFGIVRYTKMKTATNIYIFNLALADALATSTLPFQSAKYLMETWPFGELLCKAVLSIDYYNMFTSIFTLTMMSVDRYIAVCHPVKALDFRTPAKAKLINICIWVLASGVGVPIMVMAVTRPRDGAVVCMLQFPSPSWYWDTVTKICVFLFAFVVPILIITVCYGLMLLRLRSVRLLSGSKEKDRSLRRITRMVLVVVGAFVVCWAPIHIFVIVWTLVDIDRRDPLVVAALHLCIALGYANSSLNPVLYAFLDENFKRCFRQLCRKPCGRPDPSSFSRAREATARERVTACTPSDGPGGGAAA
# Target: Mu-type opioid receptor (Homo sapiens) + Delta-type opioid receptor (Homo sapiens) (UniProt P35372+P41143)
# Assay: inducers of mu-delta opioid receptor heterodimers – cell-based, luminescence, primary screen (AID 504326);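 also: 0% = vehicle-treated cells and 100% = reference agonist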
# Details: cells, OPRM1-OPRD1 heterodimerization, at 9.3 µM, active compounds read high
row,SMILES,activation
1,COc1cc(Cl)c(C)cc1NC(=O)Cn1c(NCCO)nc2ccccc21,inactive: -2.39%
2,Cc1ccc2c(c1)C1CN(C)CCC1N2C(=S)Nc1cccnc1 (centres undefined),inactive: -1.46%
3,N#CCC(=O)N/N=C\c1ccc(OC/C=C/c2ccccc2)cc1,inactive: 2.27%
4,FC(F)(F)c1cccc(-n2nnnc2C2(N3CCOCC3)CCCCC2)c1,inactive: -2.01%
5,CN1CCC2(CC1)Nc1nc(SCc3ccc(Cl)cc3)nn1C1=C2CN(C)CC1,inactive: -2.52%
6,Cc1ccc(SCc2nc3ccccc3n2CC(=O)Nc2ccc(Cl)cc2)cc1,inactive: 3.25%
7,CCOc1ccc(C(=O)N2CCn3c2nc2ccccc23)cc1,inactive: -3.14%
8,CCOC(=O)c1ccc(NC(=O)Cn2cnc3cc(C)c(C)cc32)cc1,inactive: -1.42%
9,Cc1ccc(-c2nc(N(C)C3CCN(C)CC3)c3ccccc3n2)cc1,inactive: -1.93%
10,CCOC(=O)Cc1csc(NC(=O)Cn2cnc3c2c(=O)n(C)c(=O)n3C)n1,inactive: -2.19%
11,CNC(=O)Cn1c(=O)n(C)c2ccccc21,inactive: -2.5%
12,CC1c2nc3ccccc3n2C(CC(=O)NC2CC2)C(=O)N1Cc1ccccc1 (centres undefined),inactive: -2.66%
13,CCN1C(=O)CC(N2CCC(Nc3ccc(F)cc3)CC2)C1=O (centres undefined),inactive: -0.73%
14,CCOP(=O)(Nc1ccc(C)cn1)OCC,inactive: -1.95%
15,CSc1nc(N)nc2c1ncn2CC(=O)NCCNc1ccc([N+](=O)[O-])cn1,inactive: -3.17%
16,CC(c1ccccc1)N1CCn2c(nc3cc(NC(=O)NC4CCCCC4)ccc32)C1 (centres undefined),inactive: -3.02%
17,CC(C)NC(=O)CSc1nc2ccccc2n1CC(=O)N1CCc2ccccc21,inactive: -1.06%
18,CC(C)C[C@H](NC(=O)N1CCn2c1nc1ccccc12)C(=O)N[C@@H](C(=O)O)c1ccccc1,inactive: -2.21%
19,CN(C)C1(c2nnnn2CCOC(=O)Nc2ccc(Cl)cc2)CCCCC1,inactive: 4.37%
20,CCC1=CC2Cc3nc4ccc(Cl)cc4c(N)c3C(C1)C2 (centres undefined),inactive: 3.81%
21,Cn1c(=O)c2c(ncn2CC(=O)N2CCCc3ccccc32)n(C)c1=O,inactive: -1.48%
22,COc1cccc(CNC(=O)CCCCCNC(=O)N2CCn3c2nc2ccccc23)c1,inactive: -1.81%
23,O=P1(Nc2ccccn2)COc2ccccc2OC1,inactive: -1.01%

row,SMILES,activation
1,O=C(Cn1c(-c2cscn2)nc2ccccc21)Nc1ccc2ccccc2c1,inactive: 2.48%
2,O=C(Cn1c(NCCO)nc2ccccc21)NCCc1ccc(F)cc1,inactive: -2.16%
3,CC(NC(=O)Cn1c(NCCO)nc2ccccc21)C1CC2CCC1C2 (centres undefined),inactive: -3.06%
4,CCN(CC)CCn1c(NCc2cccc(OC)c2)nc2ccccc21,inactive: -1.47%
5,CC(C)(C)NC(=O)Cn1c(=O)n(CC(=O)NC(C)(C)C)c2ccccc21,inactive: 0.97%
6,O=C(Cn1c(SCc2ccccc2)nc2ccccc21)N1CCOCC1,inactive: -2.15%
7,Cn1c(=O)c2c(ncn2CC(=O)N2CCN(c3ccc(F)cc3)CC2)n(C)c1=O,inactive: -2.45%
8,CCCCNC(=O)CC1C(=O)N(Cc2ccccc2)C(C)c2nc3ccccc3n21 (centres undefined),inactive: -1.81%
9,CCOP(=O)(NC(=NC(C)c1ccccc1)NC(C)c1ccccc1)OCC (centres undefined),inactive: -3.74%
10,O=[As](O)(c1cccs1)c1cccs1,inactive: -3.36%
11,CCc1ccccc1NC(=O)CSc1nc2ccccc2n1CC(=O)N1CCCC1,inactive: -0.41%
12,Cc1ccc(OCC(=O)OC2CN3CCC2CC3)cc1 (centres undefined),inactive: -1.84%
13,Cc1ccc(C(=O)N(C)c2ccc(OCC(=O)N3c4ccc(C)cc4C4CN(C)CCC43)cc2)cc1 (centres undefined),inactive: -2.05%
14,C[C@H](O)[C@@H]1C(=O)N2CCc3ccc(N4CCN(C)CC4)cc3[C@@H]2C[C@@H]1N(C)C(=O)Nc1cc(Cl)cc(Cl)c1,inactive: -1.36%
15,CCC(=O)N1CCn2c1nc1ccccc12,inactive: -1.91%
16,NC(=O)Cn1c(S(=O)(=O)Cc2ccccc2)nc2ccccc21,inactive: -2.38%
17,Cc1cc(NC(=O)Cn2cnc3c2c(=O)n(C)c(=O)n3C)n(-c2ccccc2)n1,inactive: -0.15%
18,NS(=O)(=O)c1cccc(NC(=O)COC(=O)C(O)(c2ccccc2)c2ccccc2)c1,inactive: -0.84%
19,O=C(NCCn1c(-c2ccncc2)nc2ccccc21)[C@H]1CCCN1c1nc(CN2CCCCC2)cs1,inactive: 0.29%
20,COC(=O)[C@H](Cc1ccc(O)cc1)NC(=O)Cn1cnc2c(OCc3ccccc3)ncnc21,inactive: -1.08%
21,CC(C)C[C@H](NC(=O)N1CCn2c1nc1ccccc12)C(=O)NCc1ccco1,inactive: -2.08%
22,Cc1ccc2c(c1)C1CN(C)CCC1N2C(=O)c1ccccc1NS(=O)(=O)c1ccc(F)cc1C (centres undefined),inactive: 0%
23,O=P1(Nc2ccc(Br)cn2)COc2ccccc2OC1,inactive: -1.28%

row,SMILES,activation
1,Cc1ccc(S(=O)(=O)N2CCN(C(=O)Cn3cnc4c3c(=O)n(C)c(=O)n4C)CC2)cc1C,inactive: -0.9%
2,Cc1ccc2c(c1)C1CN(C)CCC1N2C(=O)Cn1nnc(-c2ccccc2F)n1 (centres undefined),inactive: -1.02%
3,Cn1c(CNc2nc3ccccc3n2CCN2CCCCC2)nc2ccccc21,inactive: -0.04%
4,CCOCN(C(=O)Cn1c(COC)nc2ccccc21)c1c(C)cccc1CC,inactive: -1.51%
5,Cc1ccc2c(c1)C1C[N+](C)(CC(=O)Nc3ccccc3Cl)CCC1N2C(=O)c1ccccc1Cl (centres undefined),inactive: -2.94%
6,Nc1cccc([As](=O)(O)c2ccccc2)c1,inactive: -3.31%
7,Cc1ccc(NC(=O)Cn2cnc3c(NCc4ccccc4)ncnc32)cc1C,inactive: -1.98%
8,Cn1c(=O)c2c(ncn2CC(=O)Nc2ccc(Cl)cc2Cl)n(C)c1=O,inactive: -1.95%
9,COc1ccccc1N1CCN(C(=O)Cn2cnc3c2c(=O)n(C)c(=O)n3C)CC1,inactive: -3.47%
10,Cn1c(=O)[nH]c(=O)c2c1nc(CN1CCN(c3cccc(Cl)c3)CC1)n2CCN1CCOCC1,inactive: 0.51%
11,CSc1nc(N)nc2c1ncn2CC(=O)NCC1CCCO1 (centres undefined),inactive: -4.22%
12,Cn1c(=O)c2ncn(CC(=O)NCCOCc3ccccc3Cl)c2n(C)c1=O,inactive: -3.39%
13,O=C(Cn1c(-c2ccccc2Cl)nc2ccccc21)Nc1cccc(Cl)c1,inactive: -0.54%
14,Cn1c(=O)c2c(ncn2CC(=O)Nc2ccccc2Sc2ccccc2)n(C)c1=O,inactive: -3.18%
15,CCN(CC)C(=O)N1CCn2c(nc3ccccc32)C1,inactive: -0.45%
16,O=P1(Nc2ncccn2)COc2ccccc2OC1,inactive: -0.01%
17,Cn1c(=O)[nH]c(=O)c2c1nc(N1CCOCC1)n2CCN1CCOCC1,inactive: -3.13%
18,Cc1ccc2c(c1)C1CN(C)CCC1N2C(=O)c1ccc(Br)o1 (centres undefined),inactive: -1.15%
19,Cc1ccc2c(c1)C1CN(C)CCC1N2C(=O)/C(C#N)=C/c1ccc2c(c1)OCO2 (centres undefined),inactive: -0.42%
20,COC(=O)CSc1nc2ccccc2n1CC(=O)N(C(C)C)C(C)C,inactive: -1.19%
21,CN(C)CCn1cnc2c1c(=O)[nH]c(=O)n2Cc1ccccc1,inactive: -2.42%
22,N=c1n(CCN2CCOCC2)c2ccccc2n1Cc1ccccc1Br,inactive: -4.39%
23,CCc1ccccc1NC(=O)CSc1nc2ccccc2n1CC(=O)N(C)C,inactive: -4.09%

row,SMILES,activation
1,O=S(=O)(Nc1ccc2c(c1)nc1n2CCN(Cc2ccccc2)C1)c1ccc(Cl)cc1,inactive: 0.05%
2,O=C(Cn1cnc2ccccc21)N/N=C/c1cccs1,inactive: -0.05%
3,CC(C)N(C(=O)Cn1c(SCC(=O)NCc2ccc3c(c2)OCO3)nc2ccccc21)C(C)C,inactive: -3.41%
4,O=C1CC(N2CCC(n3c(=O)[nH]c4ccccc43)CC2)C(=O)N1c1ccc(F)cc1 (centres undefined),inactive: -2.58%
5,CC(c1ccccc1)N1CCn2c(nc3cc(NC(=O)c4cccs4)ccc32)C1 (centres undefined),inactive: -1.33%
6,COc1cccc(C(=O)N2CCn3c2nc2ccccc23)c1,inactive: -2.92%
7,COc1ccc(Cc2nc3ccccc3n2CC(=O)N/N=C/c2ccc(C)cc2O)cc1OC,inactive: 0.85%
8,CN1CN(c2ccccc2)C2(CCN(CCCSc3ccccc3NC(=O)/C=C/c3ccccc3)CC2)C1=O,active: 18.3%
9,CCN(c1ccccc1)S(=O)(=O)c1ccc(OC)c(NC(=O)Cn2cnc3c2c(=O)n(C)c(=O)n3C)c1,inactive: -1.65%
10,O=C(/C=C/c1ccccc1)OC1CN2CCC1CC2 (centres undefined),inactive: -2.87%
11,COc1cccc(NC(=O)Cn2c(SCC(=O)N3CCOCC3)nc3ccccc32)c1,inactive: -1.14%
12,O=S(=O)(c1ccc(Cl)c(Cl)c1)N1CCc2nc3ccccc3n2CC1,inactive: -1.26%
13,Cn1c(=O)c2c(ncn2CC(=O)N/N=C/C=C/c2ccccc2)n(C)c1=O,inactive: -1.2%
14,CC1CC(C)CN(Cc2nc3c(c(=O)n(C)c(=O)n3C)n2CCN2CCOCC2)C1 (centres undefined),inactive: 1.49%
15,COc1ccc(CN(C)C(=O)Cn2cnc3c(SC)nc(N)nc32)cc1OC,inactive: -2.78%
16,CCCC1OP(=O)(Nc2ccccc2)OCC1CC (centres undefined),inactive: -2.04%
17,O=S(=O)(Nc1ccc2c(c1)nc1n2CCN(Cc2ccccc2)C1)c1ccccc1,inactive: -2.44%
18,O=S(=O)(c1ccc(Br)cc1)N1CCn2c(nc3ccccc32)C1,inactive: 0.01%
19,CCN1C(=O)CC(N2CCC(Nc3ccc(OC)cc3)CC2)C1=O (centres undefined),inactive: -0.66%
20,Cn1c(=O)c2ncn(CC(=O)NCCOc3ccc(C(C)(C)C)cc3)c2n(C)c1=O,inactive: -2.01%

# Reference: PubChem BioAssay AID504326 (The Scripps Research Institute Molecular Screening Center, 2011)
